Results taken from patent publication US11883503B2, “Methods and compositions for cancer treatment” (DINGFU BIOTARGET CO., LTD., priority 2017, dated 2024).

Tested on: B16-EGFR-SIY melanoma cells
Assay: B16-EGFR-SIY tumor model, cytotoxic chemotherapy combined with immunoconjugate
Details: oxaliplatin alone 15 mg/kg tail vein day 7

**Q.** For oxaliplatin [reference compound], which “mortality (toxicity)” value is on record?
**A.** Its value is “dead after 14 days”.
